Data reported in article PMC11434980, “Deciphering Chemical Rules for Drug Penetration into Strongyloides” (Pharmaceutics, 2024).

Test system: S. venezuelensis L3s
Protocol: Baerman-obtained S. venezuelensis L3s were rinsed twice with distilled water and counted, and 100 to 150 larvae were placed per well in 96-well flat-bottom culture plates. Larvae were incubated at 28 °C for 30 min to allow adaptation and treated with compounds in the range of 0.5–40 µM for 72 h at 28 °C in a humid atmosphere. Mortality was assessed as the lack of any movement detected during 1 min of observation under an inverted microscope (40×), at 24, 48, and 72 h after treatment. The ability to stain the larvae was pointed out when observed; at 72 h, larvae were collected and washed two times with distilled water and placed in a new well to remove the background color and photographed. Pictures were also taken at 24 and 48 h without cleaning the larvae so as not to interfere with the 72 h readout of the experiment. […] All experiments were conducted in triplicate and at least three different times. The antiparasitic activity of the compounds was expressed as the concentration that inhibited the motility of half of the larvae (immobilization concentration 50, IC50).
A total of 15 dyes were tested against S. venezuelensis L3s at a 20 µM concentration. The activity was determined by the number of larvae lacking motility relative to the total number in the well after 1 min of light excitation at 24, 48, and 72 h after treatment.

## CN(C)c1ccc2nc3ccc(=[N+](C)C)cc-3sc2c1 [Methylene Blue]
  Screening 20 µM 72 h: Active
